Reference: patent publication US11596716B2, “Compounds and matrices for use in bone growth and repair” (Human BioMolecular Research Institute, priority 2013, dated 2023)

System: C2C12 cells
Assay: Alkaline Phosphatase (ALP) functional activity assay in C2C12 cells
Type: cell-based, Mouse
Details: 500 nM, 6 days of culture
Method: Alkaline Phosphatase (ALP) Functional Activity Assay: C2C12 cells were plated into 12-well plates with 7,000 cells/well in 1 mL growth media. […] 1, 2, 3, or 4 in 0.1% DMSO was added (500 nM). Half the media was exchanged with fresh media containing compound every 48 hrs. After 6 days, media was removed, ALP Lysis Buffer (10 mM Tris-HCl pH 8.0, 1 mM MgCl2, and 1% Triton X100) added, and cell lysate obtained (10 min incubation at RT) by centrifugation (5 min at 3500× g at 4° C.). Para-nitrophenol phosphate (pNPP) (2 mg/mL) was incubated with 50 μl cell lysate (10 mins, 37° C.). After addition of […] 0.02 N NaOH, absorbance OD405 was measured. Protein concentration was determined by Bradford protein assay. Results of ALP activity were plotted as nM pNP hydrolyzed/mg total protein. After normalizing control samples (i.e., DMSO-treated samples) to one-fold, the fold-changes were plotted to indicate the relative ALP activity. […] This protocol was applied to hMSC and E15 cells as well.

B1: rhBMP-2: bone morphogenetic protein-2 (BMP-2) that is a potent cell differentiation factor; recombinant reference in Table 8 (protein, UniProt P12643 283-396, looked up)
Bone morphogenetic protein 2: QAKHKQRKRLKSSCKRHPLYVDFSDVGWNDWIVAPPGYHAFYCHGECPFPLADHLNSTNHAIVQTLVNSVNSKIPKACCVPTELSAISMLYLDENEKVVLKNYQDMVVEGCGCR
Absence of matrix, versus untreated (DMSO) cells
  ALP activity fold-changes +/− SD, −matrix: 4.0 ± 0.4 fold
Calcium phosphate ceramic 5 mg/mL
  ALP activity fold-changes +/− SD, +matrix: 7.1 ± 0.7 fold
